# Assay results reported in patent US11845808B2, “Peptide inhibitors of interleukin-23 receptor and their use to treat inflammatory diseases” (Janssen Biotech, Inc., priority 2020, dated 2023).
# Experiments:
# Type in all cases: in vitro ADME
# [1] = Stability in simulated intestinal fluid (SIF); conditions: 100 fold dilution of standard SIF concentration, 37° C., 20 μM
# Description: Studies were carried out in simulated intestinal fluid (SIF) and simulated gastric fluid (SGF) to evaluate gastric stability of the peptide inhibitors of the present invention. In addition, studies were carried out to assess redox stability of the peptide inhibitors of the present invention.
# SIF was prepared by adding 6.8 g of monobasic potassium phosphate and 10.0 g of pancreatin to 1.0 L of water. After dissolution, the pH was adjusted to 6.8 using NaOH. DMSO stocks (2 mM) were first prepared for the test compounds. Aliquots of the DMSO solutions were dosed into 6 individual tubes, each containing 0.5 mL of SIF, which is pre-warmed to 37° C. The final test compound concentration was 20 μM. The vials were kept in a benchtop Thermomixer® for the duration of the experiment. At each timepoint (0, 5, 10, 20, 40, 60, or 360 minutes or 24 hours), 1.0 mL of acetonitrile containing 1% formic acid was added to one vial to terminate the reaction. Samples were stored at 4° C. until the end of the experiment. After the final timepoint is sampled, the tubes were mixed and then centrifuged at 3,000 rpm for 10 minutes. Aliquots of the supernatant were removed, diluted 1:1 into distilled water containing internal standard, and analyzed by LCMS/MS. Percent remaining at each timepoint was calculated based on the peak area response ratio of test to compound to internal standard. Time 0 was set to 100%, and all later timepoints were calculated relative to time 0. Half-lives were calculated by fitting to a first-order exponential decay equation using Graphpad.
# [2] = Stability in human fecal homogenate; conditions: 20% human fecal homogenate, 37° C., 20 μM
# Description: (§1) Studies were carried out in human or cynomlogus monkey fecal homogenate to evaluate gastrointestinal stability of the peptide inhibitors of the present invention.
# (§2) Fecal homogenate (20%) was prepared by adding 4 mL of growth medium (1 liter contains 2 g peptone water powder, 2 g yeast extract, 0.1 g NaCl, 0.04 g KH2PO4, 0.01 g CaCl2·6H2O, 0.01 g MgSO4.7H2O, 2 mL Tween 80, 0.5 g bile salts, 0.5 g L-cysteine HCl, 2 g NaHCO3, and 10 μL Vitamin K, pH adjusted to 6.8, and sterilized by filtration through a 0.22 μm filter) to every gram of feces (pooled freshly collected human or cynomolgus monkey feces). The suspension was vortexed to break up large clumps, and homogenized using a bead mill homogenizer. Centrifuged the homogenate at 2800×g for 15 min. The supernatant is taken out and used for incubations. DMSO stocks (10 mM) were first prepared for the test compounds. Incubations were performed in an anaerobic chamber conditioned at 37° C. Aliquots of the DMSO solutions were dosed into 1.0 mL aliquots of 20% fecal homogenate, which are pre-warmed to 37° C. The final test compound concentration was 20 μM. At each timepoint (0, 20 min, 1, 3, 6, or 24 hours), 100 μL aliquot of each incubation mixture is taken out and added to separate tubes containing 300 μL of 50% acetonitrile/50% methanol and an internal standard to terminate the reaction. Samples were taken out of the anaerobic chamber and stored at 4° C. until the end of the experiment. After the final timepoint is sampled, the tubes were mixed and then centrifuged at 3,000 rpm for 10 minutes. Aliquots of the supernatant were removed, diluted 1:1 into distilled water containing 0.1% formic acid, and analyzed by LC/MS/MS. Percent remaining at each timepoint was calculated based on the peak area response ratio of test to compound to internal standard. Time 0 was set to 100%, and all later timepoints were calculated relative to time 0. Half-lives were calculated by fitting to a first-order exponential decay equation using Graphpad or Excel.
# [3] = Stability in cynomolgus monkey fecal homogenate; conditions: 20% cynomolgus monkey fecal homogenate, 37° C., 20 μM
# Description: as §1, §2
substance,measurement,setting,value
Ac-[Pen]-N-T-[(W(7-(5-Et)]-[Lys(Ac)]-[Pen]-Phe[4-(2-aminoethoxy)]-[2-Nal]-[THP]-E-N-[3Pal]-[Sarc]-NH2 [Peptide 149],SIF t½,[1],>24.0 h
same,t½: Human Feces anaerobic,[2],>24.0 h
same,t½: Monkey Feces anaerobic,[3],>24.0 h
Ac-[Abu]-N-T-[W(7-Ph)]-Q-[Cys]-Phe[4-(2-aminoethoxy)]-[3Quin]-[THP]-E-N-H-[Sarc]-NH2 [Peptide 93],SIF t½,[1],>24.0 h
same,t½: Human Feces anaerobic,[2],1.3 h
same,t½: Monkey Feces anaerobic,[3],8.4 h
Ac-[Abu]-N-T-[W(7-Me)]-[Lys(Ac)]-[Cys]-Phe[4-(2-aminoethoxy)]-[2-Nal]-[THP]-E-N-H-[Sarc]-NH2 [Peptide 99],SIF t½,[1],10.8 h
same,t½: Human Feces anaerobic,[2],2.3 h
same,t½: Monkey Feces anaerobic,[3],8.8 h
Ac-[Abu]-N-T-[W(7-Ph)]-[Lys(Ac)]-[Cys]-Phe[4-(2-aminoethoxy)]-[2-Nal]-[THP]-E-N-H-[Sarc]-NH2 [Peptide 98],SIF t½,[1],>24.0 h
same,t½: Human Feces anaerobic,[2],6.8 h
same,t½: Monkey Feces anaerobic,[3],14.1 h
Ac-[Abu]-N-T-[W(7-Me)]-[Lys(Ac)]-[Cys]-Phe[4-(2-aminoethoxy)]-[2-Nal]-[a-MeLys]-[Lys(Ac)]-N-H-[Sarc]-NH2 [Peptide 97],SIF t½,[1],6.6 h
same,t½: Human Feces anaerobic,[2],5.1 h
same,t½: Monkey Feces anaerobic,[3],8 h
Ac-[Pen]-N-T-[W(7-(4Quin))]-[Lys(Ac)]-[Pen]-Phe[4-(2-aminoethoxy)]-[2-Nal]-[THP]-E-N-[3Pal]-[Sarc]-NH2 [Peptide 147],SIF t½,[1],>24.0 h
same,t½: Human Feces anaerobic,[2],>24.0 h
same,t½: Monkey Feces anaerobic,[3],>24.0 h
Ac-[Abu]-Q-T-[W(7-Me)]-[Cit]-[Cys]-Phe[4-(2-aminoethoxy)]-[2-Nal]-[THP]-E-N-[3Pal]-[Sarc]-NH2 [Peptide 111],SIF t½,[1],8.5 h
same,t½: Human Feces anaerobic,[2],2 h
same,t½: Monkey Feces anaerobic,[3],12.8 h
Ac-[(D)Arg]-[Abu]-N-T-[W(7-Me)]-Q-[Cys]-Phe[4-(2-aminoethoxy)]-[2-Nal]-[THP]-E-N-[(D)Leu]-[Sarc]-NH2 [Peptide 101],SIF t½,[1],>24.0 h
same,t½: Human Feces anaerobic,[2],1.8 h
same,t½: Monkey Feces anaerobic,[3],8.1 h
Ac-[Abu]-N-T-[W(7-Ph)]-Q-[Cys]-Phe[4-(2-aminoethoxy)]-[2-Nal]-[THP]-E-N-H-[Sarc]-NH2 [Peptide 96],SIF t½,[1],>24.0 h
same,t½: Human Feces anaerobic,[2],1.5 h
same,t½: Monkey Feces anaerobic,[3],8.6 h
Ac-[Pen]-N-T-[W(7-indazol-5-yl)]-[Lys(Ac)]-[Pen]-Phe[4-(2-aminoethoxy)]-[2-Nal]-[THP]-E-N-[3Pal]-[Sarc]-NH2 [Peptide 152],SIF t½,[1],>24.0 h
same,t½: Human Feces anaerobic,[2],>24.0 h
same,t½: Monkey Feces anaerobic,[3],>24.0 h
Ac-[Abu]-N-T-[W(7-Me)]-Q-[Cys]-Phe[4-(2-aminoethoxy)]-[3Quin]-[THP]-E-N-H-[Sarc]-NH2 [Peptide 94],SIF t½,[1],>24.0 h
same,t½: Human Feces anaerobic,[2],1.2 h
same,t½: Monkey Feces anaerobic,[3],9.9 h
Ac-[Pen]-N-T-[(W(7-(3-pyrazol-1-yl))]-[Lys(Ac)]-[Pen]-Phe[4-(2-aminoethoxy)]-[2-Nal]-[THP]-E-N-[3Pal]-[Sarc]-NH2 [Peptide 151],SIF t½,[1],>24.0 h
same,t½: Human Feces anaerobic,[2],>24.0 h
same,t½: Monkey Feces anaerobic,[3],>24.0 h
Ac-[(D)Arg]-[Abu]-N-T-[W(7-Me)]-[Cit]-[Cys]-Phe[4-(2-aminoethoxy)]-[2-Nal]-[THP]-E-N-H-[Sarc]-NH2 [Peptide 102],SIF t½,[1],17.9 h
same,t½: Human Feces anaerobic,[2],1.2 h
same,t½: Monkey Feces anaerobic,[3],4.2 h
